US7332503B2, “Aporphine esters and their use in therapy” (Axon Biochemicals B.V., priority 2000, dated 2008)

Conditions: samples diluted with MeOH for API MS; Apo formed

Question: For “Mono-Hexadecanoyl Apomorphine [Example 4]”, which sensitivity to methanolysis is on record?
Answer: very sensitive to methanolysis
